Assay results from PubChem BioAssay (NCI).
Only a part is listed here, and it is no random draw.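 Note: values are percent growth. 100 is the growth of untreated cells, values between 100 and 0 indicate rising inhibition; between -100 and 0 indicates cell death.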 Active and inactive are the calls of the source. The calls were made as follows: active = growth percent below 10; inactive = the rest.

Key:
Assay in all cases: NCI-60 one-dose screen, 48 h (100 = growth as untreated, 0 = no growth, -100 = all killed)
Settings in all cases: 10 µM unless noted
NCI-H23 lung = tested on: NCI-H23 lung
NCI-H226 lung = tested on: NCI-H226 lung
NCI-H322M lung = tested on: NCI-H322M lung
HOP-62 NSCLC = tested on: HOP-62 NSCLC
NCI-H460 lung = tested on: NCI-H460 lung
HOP-92 NSCLC = tested on: HOP-92 NSCLC
NCI-H522 lung = tested on: NCI-H522 lung
A549/ATCC NSCLC = tested on: A549/ATCC NSCLC
786-0 renal = tested on: 786-0 renal
COLO 205 colon = tested on: COLO 205 colon
DU-145 prostate = tested on: DU-145 prostate
K-562 leukemia = tested on: K-562 leukemia
MALME-3M melanoma = tested on: MALME-3M melanoma
MDA-MB-231 breast = tested on: MDA-MB-231 breast
RXF 393 renal = tested on: RXF 393 renal
SF-268 CNS = tested on: SF-268 CNS
SF-539 CNS = tested on: SF-539 CNS
UACC-257 melanoma = tested on: UACC-257 melanoma
M14 melanoma = tested on: M14 melanoma
SF-295 CNS = tested on: SF-295 CNS

Measured: growth

O=C(c1ccc(F)cc1)N(CCCl)CCCl
inactive: NCI-H23 lung 98.1% | NCI-H226 lung 99.1% | NCI-H322M lung 111% | HOP-62 NSCLC 114% | NCI-H460 lung 107% | HOP-92 NSCLC 107% | NCI-H522 lung 87.6% | A549/ATCC NSCLC 101% | 786-0 renal 98.7% | COLO 205 colon 121% | DU-145 prostate 109% | K-562 leukemia 114% | MALME-3M melanoma 106% | MDA-MB-231 breast 110% | RXF 393 renal 91.7% | SF-268 CNS 106% | SF-539 CNS 95.8% | UACC-257 melanoma 95% | M14 melanoma 110%

O=[N+]([O-])c1cc2cn[nH]c2cc1[N+](=O)[O-]
inactive: NCI-H23 lung 91.6% | NCI-H226 lung 91% | NCI-H322M lung 102% | HOP-62 NSCLC 102% | NCI-H460 lung 107% | HOP-92 NSCLC 95.5% | NCI-H522 lung 92.1% | A549/ATCC NSCLC 100% | 786-0 renal 113% | COLO 205 colon 106% | DU-145 prostate 127% | K-562 leukemia 103% | MALME-3M melanoma 103% | MDA-MB-231 breast 78.4% | RXF 393 renal 120% | SF-268 CNS 106% | SF-295 CNS 95.9% | SF-539 CNS 110% | UACC-257 melanoma 105% | M14 melanoma 110%

CCOCCN(CCCl)Cc1ccccc1
inactive: NCI-H23 lung 104% | NCI-H226 lung 109% | NCI-H322M lung 102% | HOP-62 NSCLC 88.7% | NCI-H460 lung 110% | HOP-92 NSCLC 89.8% | NCI-H522 lung 92.2% | A549/ATCC NSCLC 91.3% | 786-0 renal 102% | COLO 205 colon 114% | DU-145 prostate 107% | K-562 leukemia 92% | MALME-3M melanoma 102% | MDA-MB-231 breast 107% | RXF 393 renal 108% | SF-268 CNS 97.7% | SF-295 CNS 107% | SF-539 CNS 94.4% | UACC-257 melanoma 97.3% | M14 melanoma 110%

O=C(N(CCCl)CCCl)C(Cl)(Cl)Cl
inactive: NCI-H23 lung 113% | NCI-H226 lung 91.8% | NCI-H322M lung 126% | HOP-62 NSCLC 113% | NCI-H460 lung 107% | HOP-92 NSCLC 122% | NCI-H522 lung 85.9% | A549/ATCC NSCLC 98.3% | 786-0 renal 105% | COLO 205 colon 113% | DU-145 prostate 109% | K-562 leukemia 108% | MALME-3M melanoma 114% | MDA-MB-231 breast 114% | RXF 393 renal 99.9% | SF-268 CNS 103% | SF-539 CNS 92.7% | UACC-257 melanoma 107% | M14 melanoma 112%

Cc1cccc(Nc2c([N+](=O)[O-])cc([N+](=O)[O-])cc2[N+](=O)[O-])c1
inactive: NCI-H23 lung 103% | NCI-H226 lung 90.9% | NCI-H322M lung 104% | HOP-62 NSCLC 122% | NCI-H460 lung 95.9% | HOP-92 NSCLC 74.6% | NCI-H522 lung 50% | A549/ATCC NSCLC 95.5% | 786-0 renal 107% | COLO 205 colon 77.2% | DU-145 prostate 104% | K-562 leukemia 78.6% | MALME-3M melanoma 82.6% | MDA-MB-231 breast 92.9% | RXF 393 renal 112% | SF-268 CNS 96.3% | SF-539 CNS 101% | UACC-257 melanoma 93.5% | M14 melanoma 101%

CN(C)P(=O)(N(C)C)n1c(Nc2ccccc2)nnc1-c1ccccc1
inactive: NCI-H23 lung 89.4% | NCI-H226 lung 87.9% | NCI-H322M lung 95.2% | HOP-62 NSCLC 105% | NCI-H460 lung 106% | HOP-92 NSCLC 80.9% | NCI-H522 lung 106% | A549/ATCC NSCLC 87.1% | 786-0 renal 99.5% | COLO 205 colon 85.4% | DU-145 prostate 106% | K-562 leukemia 128% | MALME-3M melanoma 103% | MDA-MB-231 breast 83.8% | RXF 393 renal 108% | SF-268 CNS 101% | SF-539 CNS 95.4% | UACC-257 melanoma 99% | M14 melanoma 103%

O=C1NC(c2ccccc2)(c2ccccc2)C(=O)N1P(=O)(Oc1ccccc1)Oc1ccccc1
inactive: NCI-H23 lung 102% | NCI-H226 lung 99.7% | NCI-H322M lung 104% | HOP-62 NSCLC 90.3% | NCI-H460 lung 106% | HOP-92 NSCLC 82.6% | NCI-H522 lung 98.8% | A549/ATCC NSCLC 102% | 786-0 renal 102% | COLO 205 colon 106% | DU-145 prostate 114% | K-562 leukemia 98.3% | MALME-3M melanoma 97.8% | MDA-MB-231 breast 106% | RXF 393 renal 102% | SF-268 CNS 106% | SF-295 CNS 113% | SF-539 CNS 101% | UACC-257 melanoma 105% | M14 melanoma 99.9%

COc1ccc(C(=O)N(CCCl)CCCl)cc1OC
inactive: NCI-H23 lung 104% | NCI-H226 lung 103% | NCI-H322M lung 111% | HOP-62 NSCLC 108% | NCI-H460 lung 105% | HOP-92 NSCLC 93% | NCI-H522 lung 70.2% | A549/ATCC NSCLC 101% | 786-0 renal 100% | COLO 205 colon 108% | DU-145 prostate 118% | K-562 leukemia 87.5% | MALME-3M melanoma 114% | MDA-MB-231 breast 124% | RXF 393 renal 117% | SF-268 CNS 109% | SF-539 CNS 95% | UACC-257 melanoma 106% | M14 melanoma 104%

CCCCCCCCCCNP(=S)(Cl)Cl
inactive: NCI-H23 lung 95.8% | NCI-H226 lung 95.8% | NCI-H322M lung 99.8% | HOP-62 NSCLC 102% | NCI-H460 lung 100% | HOP-92 NSCLC 95.5% | NCI-H522 lung 94.2% | A549/ATCC NSCLC 97.9% | 786-0 renal 101% | COLO 205 colon 110% | DU-145 prostate 113% | K-562 leukemia 92.9% | MALME-3M melanoma 106% | MDA-MB-231 breast 98.8% | SF-268 CNS 105% | SF-295 CNS 97.4% | SF-539 CNS 98.5% | UACC-257 melanoma 97.1% | M14 melanoma 102%

OP1OCCO1
inactive: NCI-H23 lung 111% | NCI-H226 lung 92.4% | NCI-H322M lung 103% | HOP-62 NSCLC 98.5% | NCI-H460 lung 110% | HOP-92 NSCLC 68.5% | A549/ATCC NSCLC 104% | 786-0 renal 103% | COLO 205 colon 107% | DU-145 prostate 124% | K-562 leukemia 105% | MALME-3M melanoma 98.4% | MDA-MB-231 breast 101% | RXF 393 renal 106% | SF-268 CNS 111% | SF-295 CNS 120% | SF-539 CNS 108% | UACC-257 melanoma 102% | M14 melanoma 111%

COC1OC(CNCCCl)C2OC(C)(C)OC12 (centres undefined)
inactive: NCI-H23 lung 97.3% | NCI-H226 lung 100% | NCI-H322M lung 134% | HOP-62 NSCLC 103% | NCI-H460 lung 100% | HOP-92 NSCLC 145% | NCI-H522 lung 91.8% | A549/ATCC NSCLC 106% | 786-0 renal 96.8% | COLO 205 colon 102% | DU-145 prostate 126% | K-562 leukemia 133% | MALME-3M melanoma 143% | MDA-MB-231 breast 111% | SF-268 CNS 113% | SF-295 CNS 112% | SF-539 CNS 98.2% | UACC-257 melanoma 93.9% | M14 melanoma 103%

CCOP(=S)(OCC)OCC
inactive: NCI-H23 lung 100% | NCI-H226 lung 105% | NCI-H322M lung 111% | HOP-62 NSCLC 97.5% | NCI-H460 lung 111% | HOP-92 NSCLC 97.9% | NCI-H522 lung 98.7% | A549/ATCC NSCLC 107% | 786-0 renal 101% | COLO 205 colon 113% | DU-145 prostate 108% | K-562 leukemia 124% | MDA-MB-231 breast 134% | RXF 393 renal 106% | SF-268 CNS 113% | SF-539 CNS 98.7% | UACC-257 melanoma 107% | M14 melanoma 106%

O=C(C(=O)c1ccc([N+](=O)[O-])cc1[N+](=O)[O-])c1ccc([N+](=O)[O-])cc1[N+](=O)[O-]
inactive: NCI-H23 lung 93.8% | NCI-H226 lung 95.4% | NCI-H322M lung 103% | HOP-62 NSCLC 101% | NCI-H460 lung 105% | HOP-92 NSCLC 102% | NCI-H522 lung 60.8% | A549/ATCC NSCLC 103% | 786-0 renal 106% | COLO 205 colon 110% | DU-145 prostate 113% | K-562 leukemia 71.7% | MALME-3M melanoma 101% | RXF 393 renal 133% | SF-268 CNS 96% | SF-295 CNS 109% | SF-539 CNS 101% | UACC-257 melanoma 96.5% | M14 melanoma 90.1%
